Biological target: Mu-type opioid receptor (Rattus norvegicus, UniProt P33535)
Assay: Displacement of [3H]DAMGO from mu opioid receptor in rat brain membranes incubated for 45 mins by liquid scintillation counting method
Summary of the method: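 Rat brain membranes (cerebella removed; 0.3–0.5 mg protein) in 50 mM Tris-HCl, pH 7.4, were incubated 45 min at 35 °C with 1 nM [3H]DAMGO (MOR) or 0.5 nM [3H][Ile5,6]deltorphin II (DOR) plus varied test concentrations. Nonspecific binding was set with 10 μM naloxone. Samples were GF/C filtered, washed and scintillation counted. Ki was obtained by Cheng–Prusoff; duplicates, 3–4 experiments.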

Sequences of proteins named here, by UniProt entry; tags and fusion partners are left off.
UniProt P33535, whole entry: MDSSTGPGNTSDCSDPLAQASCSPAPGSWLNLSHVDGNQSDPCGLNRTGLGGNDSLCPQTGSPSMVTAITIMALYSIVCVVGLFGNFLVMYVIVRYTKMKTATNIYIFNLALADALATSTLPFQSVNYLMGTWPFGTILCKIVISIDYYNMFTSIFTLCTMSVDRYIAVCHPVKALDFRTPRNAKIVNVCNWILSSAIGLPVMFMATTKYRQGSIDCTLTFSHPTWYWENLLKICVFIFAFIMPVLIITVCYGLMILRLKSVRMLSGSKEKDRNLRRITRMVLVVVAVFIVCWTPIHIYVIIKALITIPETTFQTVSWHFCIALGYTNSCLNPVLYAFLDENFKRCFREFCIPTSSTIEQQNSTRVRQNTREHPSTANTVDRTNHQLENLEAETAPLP

CN1CC[C@]23c4c5ccc(O)c4O[C@H]2[C@H](NCC(=O)O)CC[C@@]3(O)[C@H]1C5 was tested, and the Ki was 0.83 nM.

Source: BindingDB's records for doi:10.1021/acs.jmedchem.8b01327 (2019)
